One molecule from patent publication US20020115688A1, “Screen for glutamate reuptake inhibitors, stimulators, and modulators” (priority 2000, published 2002) can be followed below.

This assay deals with T1, glutamate transporters (GLAST and GLT1).
T1 construct: Bmax; other: rat brain membrane homogenates; other: 20 nM [3H]-4MG, 15 minutes at 4° C; KD; association t½
The experiment in a line: [3H]-4MG binding to rat brain membrane homogenates. The following applies: FIG. 1. How it is done: Rat brain tissue, either freshly dissected or stored frozed at −20° C. is homogenized in HEPES buffer containing Na^+(5 mM HEPES, 96 mM NaCl, 1.8 mM CaCl2, 1 mM MgCl2 (pH 7.5 at 25° C.)), and membranes are washed twice in the same buffer using standard methods for subcellular fractionation and the preparation of brain membranes. Brain tissue is weighed and homogenized in 15 ml of assay buffer using a Polytron tissue homogenizer (setting 4, 10-15 seconds). […] The homogenate is centrifuged again (as above) and the pellet re-suspended in 20 to 25 volumes of buffer. Membrane homogenates make up 20% of final assay volume. Binding assays are also performed in the above buffer.
The range of concentrations of the receptor compound (for example, 10 nM-1 mM) is varied dependent on whether all or only a trace of the receptor compound is labeled. […] Binding is determined by any technique suitable for the label used. […]
Forebrain tissue from female Sprague Dawley rats was homogenised in HEPES buffer containing Na^+, and membranes were washed twice in the same buffer. […] Binding was determined by scintillation spectrometry. […] Data were analyzed using computer-assisted curve fitting. Values are expressed as mean of at least triplicate determinations and multiple experiments. […]

Take `C[C@H](C[C@H](N)C(=O)O)C(=O)O` [4MG, (2S,4R)-4-methyl glutamic acid]: the “association t½” value is reported as “approximately 20 min”.
